Test system: subjects with RRMS
Experiment: BRAVO Phase III clinical trial, laquinimod 0.6 mg over placebo with reference arm IFN-β-1a (Avonex®)
Type: in vivo, human
Settings: vs placebo, 24 months
Protocol: ALLEGRO and BRAVO are two clinical trials reported in, e.g., PCT International Application Publication No. WO/2010/147665 ([…] et al.). BRAVO was a study performed in subjects with RRMS to assess the efficacy, safety and tolerability of laquinimod 0.6 mg over placebo in a double-blind design with a reference arm of IFN-β-1a (Avonex®) in a rater-blinded assessment. The study had treatment duration of 24 months and enrolled 1,331 subjects equally distributed between the three (3) treatment arms. The primary endpoint was ARR. Secondary endpoints were Brain atrophy, time to EDSS progression confirmed at 3 months and MSFC z-score. […] One of the basic assumptions used to assess the sample size for the study was that treatment with laquinimod will reduce the patient population ARR by 25% or more when compared to the placebo group. […] In light of this baseline imbalance, these two baseline MRI parameters were added to the model as additional covariates. […] It is inventors' assessment that the corrected results more adequately represent the true treatment effect of laquinimod.

[1] = corrected post-hoc analysis with two baseline MRI covariates

B1: Avonex®: IFN-β-1a (Avonex®), reference arm/comparator in the BRAVO study (protein, UniProt P01574 22-187, looked up)
Interferon beta: MSYNLLGFLQRSSNFQCQKLLWQLNGRLEYCLKDRMNFDIPEEIKQLQQFQKEDAALTIYEMLQNIFAIFRQDSSSTGWNETIVENLLANVYHQINHLKTVLEEKLEKEDFTRGKLMSSLHLKRYYGRILHYLKAKEYSHCAWTIVRVEILRNFYFINRLTGYLRN
ARR % reduction, Corrected [1]: 28.6% | Brain Atrophy % reduction, Corrected [1]: −9% | Cumulative number of GdE T1 lesions % reduction, Corrected [1]: 60% | Cumulative number of new T2 lesions (exploratory endpoint) % reduction, Corrected [1]: 52.3% | EDSS Progression (3 m confirmation) % reduction, Corrected [1]: 28.7% | MSFC % reduction, Corrected [1]: 63.7% | ARR % reduction, Corrected (corrected post-hoc analysis with two baseline MRI covariates, listed as Avonex ®): 28.7% | ARR % reduction, Original (original analysis): 25.9% | Brain Atrophy % reduction, Original (original analysis): −10% | Cumulative number of GdE T1 lesions % reduction, Original (original analysis): 61.5% | Cumulative number of new T2 lesions (exploratory endpoint) % reduction, Original (original analysis): 51.1% | EDSS Progression (3 m confirmation) % reduction, Original (original analysis): 25.8% | MSFC % reduction, Original (original analysis): 66.6% | ARR % reduction, Original (original analysis, listed as Avonex ®): 25.9%
